In ChEMBL document CHEMBL1155340, “Discovery of a novel azepine series of potent and selective 5-HT2C agonists as potential treatments for urinary incontinence” (Bioorg Med Chem Lett, 2009) one finds EC50 data, which are given here for one compound.

By UniProt entry, the sequences of proteins in these tests, tags left out. Where a name states a change or a piece, a line headed by the entry shows the natural chain unless it says otherwise.
UniProt P28335: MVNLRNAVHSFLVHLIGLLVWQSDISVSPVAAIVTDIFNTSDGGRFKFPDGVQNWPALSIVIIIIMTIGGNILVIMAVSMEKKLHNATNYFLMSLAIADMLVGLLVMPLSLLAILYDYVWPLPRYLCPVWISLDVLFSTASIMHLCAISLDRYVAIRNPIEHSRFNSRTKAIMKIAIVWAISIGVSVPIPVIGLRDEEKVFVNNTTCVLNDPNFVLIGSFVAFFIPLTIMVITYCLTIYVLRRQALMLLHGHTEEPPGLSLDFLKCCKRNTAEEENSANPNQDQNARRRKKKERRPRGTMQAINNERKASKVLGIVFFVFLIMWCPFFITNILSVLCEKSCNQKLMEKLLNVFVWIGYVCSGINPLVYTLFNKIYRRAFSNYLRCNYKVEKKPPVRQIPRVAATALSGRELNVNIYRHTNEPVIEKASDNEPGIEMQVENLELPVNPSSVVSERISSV
UniProt P41595, whole entry: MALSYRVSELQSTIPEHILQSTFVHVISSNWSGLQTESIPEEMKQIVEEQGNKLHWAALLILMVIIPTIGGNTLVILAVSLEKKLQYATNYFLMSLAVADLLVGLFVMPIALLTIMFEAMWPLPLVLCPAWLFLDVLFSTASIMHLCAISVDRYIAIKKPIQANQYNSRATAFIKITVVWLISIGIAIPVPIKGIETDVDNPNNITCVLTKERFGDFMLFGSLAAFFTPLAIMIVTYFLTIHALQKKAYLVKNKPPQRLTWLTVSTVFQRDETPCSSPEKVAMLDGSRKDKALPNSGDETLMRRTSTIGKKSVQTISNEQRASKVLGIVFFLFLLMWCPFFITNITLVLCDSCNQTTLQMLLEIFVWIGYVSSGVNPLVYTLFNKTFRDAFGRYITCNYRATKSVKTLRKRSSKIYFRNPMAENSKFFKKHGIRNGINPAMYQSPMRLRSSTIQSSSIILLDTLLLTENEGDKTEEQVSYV

Assay [1] has as its target 5-hydroxytryptamine receptor 2C (Homo sapiens, UniProt P28335).
Assay [2] deals with 5-hydroxytryptamine receptor 2B (Homo sapiens, UniProt P41595).

For orientation: EC50 means the concentration needed to bring the measured effect to its halfway point. A higher EC50 goes with a need for much substance. For the compound `Clc1cccc(N2CCNCC2)c1` [CHLOROPHENYLPIPERAZINE], the EC50 amounted to 170 nM in assay [1] and 125 nM in assay [2].
